From ChEMBL document CHEMBL2401704, “Inhibition of rhodesain as a novel therapeutic modality for human African trypanosomiasis” (J Med Chem, 2013)

Tested on: Trypanosoma brucei
Assay: Inhibition of Trypanosoma brucei rhodesain assessed as second order rate constant

**Q.** Which K does the source give for `C[C@H](NC(=O)[C@H](Cc1ccccc1)NC(=O)OCc1ccccc1)C(=O)C=[N+]=[N-]` here?
**A.** Its K is 3.3 ×10⁶ /M/min.
